Experiments:
[1] = system: wild-type tobacco without tolerance gene; assay: Postemergence tolerance of tobacco, percentage destruction; format: in vivo; settings: 17 days after treatment
Method: (§1) In this trial, each test is performed on a sample of 10 plants, 10 plants being kept untreated.
(§2) All the treatments are performed by spraying at the rate of 500 l of spraying mixture per hectare.
(§3) For the postemergence treatment, sowing is performed and then the plants are transplanted in 9 cm×9 cm pots.
(§4) The postemergence treatments are carried out at a well developed stage (3-4 leaves). Batches of plants, respectively wild-type and genetically transformed, obtained above are divided into several parts, with: […]

[2] = system: PBD6 tobacco plants HPPD + OXY; assay: as above; format: in vivo; settings: 17 days after treatment
Method: as §1, §2, §3, §4

SMILES: N#Cc1cc(Br)c(O)c(Br)c1 [bromoxynil]
- phytotoxicity, percentage destruction ([1]; 400 g/ha postemergence): 0%
- phytotoxicity, percentage destruction ([1]; 800 g/ha postemergence): 0%
- phytotoxicity, percentage destruction ([2]; 400 g/ha postemergence): 3%
- phytotoxicity, percentage destruction ([2]; 800 g/ha postemergence): 0%

Reference: US7935869B2, “Chimeric gene with several herbicide tolerance genes, plant cell and plant resistant to several herbicides” (Bayer S.A.S., priority 1996, dated 2011)
